The test deals with Lck. The experiment in a line: Pulse-chase tandem imaging of palmitate turnover on Lck in Jurkat T cells. In kind it is cell-based, human. To be noted: added during the chase; 20 μM MAFP, 100 μM 2BP.

The text below walks through data of US20100203647A1, “Chemical Reporters of Protein Acylation” (THE ROCKEFELLER UNIVERSITY, priority 2008, published 2010).

methyl arachidonyl fluorophosphonate: the “effect of chemical inhibitor on palmitate turnover on Lck” value is given as “significantly retarded palmitate turnover on Lck”.
